Earlier results, collected in patent US20080287669A1, “METHODS AND COMPOSITIONS FOR IDENTIFYING COMPOUNDS USEFUL IN NUCLEIC ACID PURIFICATION” (priority 2007, published 2008).
Only a part of the results on these compounds is given; other tests are left out.

Settings: Table 3, miscible organic solvents

Compound: OCCN(CCO)CCO
- Dielectric Constant (DC): 29.36
